Test results published in patent publication US12139488B2, “Pyrido[3,2-d]pyrimidine compounds uses thereof for treating a proliferative disease” (Universite de Montreal, priority 2021, dated 2024).
Read-outs that look alike come from different tables or passages of the source.

Sequences of proteins named here, by UniProt entry; tags and fusion partners are left off.
UniProt P15056, whole entry: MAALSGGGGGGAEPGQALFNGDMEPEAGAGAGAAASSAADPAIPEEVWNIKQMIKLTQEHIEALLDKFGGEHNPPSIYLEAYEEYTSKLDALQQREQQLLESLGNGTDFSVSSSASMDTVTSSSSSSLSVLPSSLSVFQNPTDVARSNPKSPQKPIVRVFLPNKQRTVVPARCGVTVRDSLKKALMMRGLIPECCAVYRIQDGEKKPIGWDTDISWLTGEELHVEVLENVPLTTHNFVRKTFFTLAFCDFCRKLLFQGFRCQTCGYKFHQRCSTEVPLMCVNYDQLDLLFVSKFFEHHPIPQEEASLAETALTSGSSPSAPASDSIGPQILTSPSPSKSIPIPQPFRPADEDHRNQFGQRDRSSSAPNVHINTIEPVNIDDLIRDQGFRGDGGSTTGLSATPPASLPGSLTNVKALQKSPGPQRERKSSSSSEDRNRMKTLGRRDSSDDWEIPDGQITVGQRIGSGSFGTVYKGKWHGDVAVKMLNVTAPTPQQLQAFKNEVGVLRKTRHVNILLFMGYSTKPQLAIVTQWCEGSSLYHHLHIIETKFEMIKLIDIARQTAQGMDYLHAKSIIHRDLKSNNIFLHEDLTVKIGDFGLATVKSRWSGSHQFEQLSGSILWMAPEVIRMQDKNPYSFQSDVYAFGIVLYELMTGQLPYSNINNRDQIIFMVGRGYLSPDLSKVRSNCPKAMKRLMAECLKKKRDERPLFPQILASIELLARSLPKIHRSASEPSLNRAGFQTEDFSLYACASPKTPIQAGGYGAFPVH
UniProt P04049, whole entry: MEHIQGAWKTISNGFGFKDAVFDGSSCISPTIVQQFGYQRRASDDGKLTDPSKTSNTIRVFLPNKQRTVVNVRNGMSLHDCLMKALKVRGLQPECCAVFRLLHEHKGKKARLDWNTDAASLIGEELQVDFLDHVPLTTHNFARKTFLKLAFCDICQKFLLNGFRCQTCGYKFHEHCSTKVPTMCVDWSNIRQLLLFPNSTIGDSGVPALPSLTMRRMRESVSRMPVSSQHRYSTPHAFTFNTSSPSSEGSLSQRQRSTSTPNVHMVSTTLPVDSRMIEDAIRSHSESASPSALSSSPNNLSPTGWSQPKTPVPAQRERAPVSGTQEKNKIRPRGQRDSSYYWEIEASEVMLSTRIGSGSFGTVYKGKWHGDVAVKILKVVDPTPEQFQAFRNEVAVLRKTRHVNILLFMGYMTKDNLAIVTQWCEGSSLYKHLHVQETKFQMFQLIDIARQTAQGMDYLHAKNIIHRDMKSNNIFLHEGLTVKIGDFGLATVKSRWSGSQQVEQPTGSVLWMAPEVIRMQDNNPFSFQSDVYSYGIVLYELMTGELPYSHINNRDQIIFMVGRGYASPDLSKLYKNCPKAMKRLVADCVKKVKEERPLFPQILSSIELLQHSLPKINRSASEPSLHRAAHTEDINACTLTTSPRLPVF

Key:
BRAF = BRAF (Homo sapiens (Human), UniProt P15056); test: BRAF kinase activity assay (ADP-Glo)
CRAF = CRAF (Homo sapiens, UniProt P04049); test: CRAF kinase activity assay (ADP-Glo)
[1] = system: pERK in HCT-116 cells (KRAS G13D); test: Phospho-ERK inhibition (AlphaLISA SureFire Ultra p-ERK 1/2), HCT116; settings: for IC50: read-out: HCT116 pERK IC50; for HCT116 pERK % Ymin (lowest value of the IC50 curve): Ymin above −20% = minimal or no paradoxical activation
Outline: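 p-ERK1/2 (Thr202/Tyr204) in lysates measured by AlphaLISA after 1 h compound exposure of overnight-plated cells (RPMI-1640, 5% FBS, 0.5% DMSO, ten concentrations, usually from 10 μM). Background from a trametinib control subtracted, inhibition normalised to vehicle, and IC50 fitted with a variable-slope four-parameter model.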

[2] = read-out: Kinase IC50 (nM) BRAF, tested form: formate
[3] = read-out: Kinase IC50 (nM) CRAF, tested form: formate
[4] = HCT116 cells, Ymin in brackets, tested form: formate
[5] = HCT116 cells, class symbol before the bracket, tested form: formate
[6] = read-out: Kinase IC50 (nM), BRAF biochemical kinase assay, BRAF
[7] = read-out: Kinase IC50 (nM), CRAF biochemical kinase assay, CRAF
[8] = read-out: Kinase IC50 (nM) BRAF
[9] = read-out: Kinase IC50 (nM) CRAF
[10] = HCT116 cells, class symbol before the bracket

Structure (SMILES) | IC50 (BRAF; [6]) [nM] | IC50 (CRAF; [7]) [nM] | HCT116 pERK % Ymin (lowest value of the IC50 curve) ([1]; HCT116 cells) [%] | IC50 ([1]; HCT116 cells) [nM] | IC50 (BRAF; [8]) [nM] | IC50 (CRAF; [9]) [nM] | HCT116 pERK Ymin % ([1]; HCT116 cells, Ymin in brackets) [%] | IC50 [1, 10] [nM] | further results
Cc1c(F)cccc1S(=O)(=O)Nc1ccc(F)c(Nc2ncnc3ccc(-n4nc(C(=O)N5CCNC[C@@H]5C)c5ccccc54)nc23)c1F |  |  |  |  |  |  |  |  | IC50 (BRAF; [2]): 1 to 10 nM; IC50 (CRAF; [3]): > 50 nM; HCT116 pERK Ymin % [1, 4]: −13%; IC50 [1, 5]: < 500 nM
O=S(=O)(Nc1ccc(F)c(Nc2ncnc3ccc(-c4cncs4)nc23)c1F)c1cccc(Cl)c1Cl | < 1 | < 10 | −15 | < 500 |  |  |  |  | 
O=S(=O)(Nc1ccc(F)c(Nc2ncnc3ccc(-n4cnc5c(N6CC(F)C6)cccc54)nc23)c1F)c1cccc(Cl)c1Cl | 1 to 10 | 10 to 50 | −6 | < 500 |  |  |  |  | 
O=S(=O)(Nc1ccc(F)c(Nc2ncnc3ccc(-n4cnc5c(N6CC(CO)C6)cccc54)nc23)c1F)c1cccc(Cl)c1Cl | 1 to 10 | < 10 | −2 | < 500 |  |  |  |  | 
Cc1c(F)cccc1S(=O)(=O)Nc1ccc(F)c(Nc2ncnc3ccc(-n4nc(C(=O)N5CCC6(CCNCC6)C5)c5ccccc54)nc23)c1F |  |  |  |  |  |  |  |  | IC50 (BRAF; [2]): < 1 nM; IC50 (CRAF; [3]): 10 to 50 nM; HCT116 pERK Ymin % [1, 4]: −7.1%; IC50 [1, 5]: 1000 to 10000 nM
CC1(N)CCN(c2cccc3c2ncn3-c2ccc3ncnc(Nc4c(F)ccc(NS(=O)(=O)c5cccc(Cl)c5Cl)c4F)c3n2)CC1 | < 1 | < 10 | −10 | 1000 to 10000 |  |  |  |  | 
Cc1c(F)cccc1S(=O)(=O)Nc1ccc(F)c(Nc2ncnc3ccc(-n4nnc5c(N)cccc54)nc23)c1F |  |  |  |  |  |  |  |  | IC50 (BRAF; read-out: Kinase IC50 (nM) BRAF, tested form: HCl): < 1 nM; IC50 (CRAF; read-out: Kinase IC50 (nM) CRAF, tested form: HCl): < 10 nM; HCT116 pERK Ymin % ([1]; HCT116 cells, Ymin in brackets, tested form: HCl): −7.4%; IC50 ([1]; HCT116 cells, class symbol before the bracket, tested form: HCl): < 500 nM
Cc1c(Cl)cccc1S(=O)(=O)Nc1ccc(F)c(Nc2ncnc3ccc(-n4cc(C(N)=O)nc4C)nc23)c1F |  |  |  |  | < 1 | < 10 | 2.0 | 1000 to 10000 | 
Cn1cnc(-c2ccc3ncnc(Nc4c(F)ccc(NS(=O)(=O)c5cccc(Cl)c5Cl)c4F)c3n2)c1 | > 10 | > 50 | 4 | 1000 to 10000 |  |  |  |  | 
O=S(=O)(Nc1ccc(F)c(Nc2ncnc3ccc(-n4cnc5c(CN6CCO[C@H](CO)C6)cccc54)nc23)c1F)c1ccccc1Cl |  |  |  |  | 1 to 10 | > 50 | −8 | 1000 to 10000 | 
COC1CCN(c2cccc3c2nnn3-c2ccc3ncnc(Nc4c(F)ccc(NS(=O)(=O)c5cccc(Cl)c5Cl)c4F)c3n2)CC1 | 1 to 10 | 10 to 50 | −4 | < 500 |  |  |  |  | 
CC(c1cccc2c1ncn2-c1ccc2ncnc(Nc3c(F)ccc(NS(=O)(=O)c4ccccc4Cl)c3F)c2n1)N(C)C (centres unmarked) |  |  |  |  |  |  |  |  | IC50 (BRAF; read-out: Kinase IC50 (nM) BRAF, tested form: TFA): 1 to 10 nM; IC50 (CRAF; read-out: Kinase IC50 (nM) CRAF, tested form: TFA): 10 to 50 nM; HCT116 pERK Ymin % ([1]; HCT116 cells, Ymin in brackets, tested form: TFA): −3%; IC50 ([1]; HCT116 cells, class symbol before the bracket, tested form: TFA): 1000 to 10000 nM
Cc1c(Cl)cccc1S(=O)(=O)Nc1ccc(F)c(Nc2ncnc3ccc(-n4cc(C(=O)N5CC[C@H](N)C5)c5ccccc54)nc23)c1F |  |  |  |  |  |  |  |  | IC50 (BRAF; read-out: Kinase IC50 (nM) BRAF, tested form: formic acid salt): < 1 nM; IC50 (CRAF; read-out: Kinase IC50 (nM) CRAF, tested form: formic acid salt): 10 to 50 nM; HCT116 pERK Ymin % ([1]; HCT116 cells, Ymin in brackets, tested form: formic acid salt): 14%; IC50 ([1]; HCT116 cells, class symbol before the bracket, tested form: formic acid salt): 1000 to 10000 nM
CC(C)C1(O)CCN(c2cccc3c2ncn3-c2ccc3ncnc(Nc4c(F)ccc(NS(=O)(=O)c5cccc(Cl)c5Cl)c4F)c3n2)CC1 | 1 to 10 | < 10 | −8 | < 500 |  |  |  |  | 
O=S(=O)(Nc1ccc(F)c(Nc2ncnc3ccc(-n4cnc5c(N6CC(O)C6)cccc54)nc23)c1F)c1cccc(Cl)c1Cl | < 1 | < 10 | −5 | < 500 |  |  |  |  | 
CC(C)(C)OC(=O)N1CCN(c2cccc3c2ncn3-c2ccc3ncnc(Nc4c(F)ccc(NS(=O)(=O)c5cccc(Cl)c5Cl)c4F)c3n2)CC1 | > 10 | > 50 | −10 | < 500 |  |  |  |  | 
Cc1c(F)cccc1S(=O)(=O)Nc1ccc(F)c(Nc2ncnc3ccc(-n4nc(C(=O)N[C@H]5C[C@@H](O)C5)c5ccccc54)nc23)c1F |  |  |  |  | 1 to 10 | 10 to 50 | 10 | < 500 | 
Cc1c(F)cccc1S(=O)(=O)Nc1ccc(F)c(Nc2ncnc3ccc(-n4nc(C(=O)N(C)Cc5ccccn5)c5ccccc54)nc23)c1F |  |  |  |  | < 1 | < 10 | 1.1 | < 500 | 
Cc1c(F)cccc1S(=O)(=O)Nc1ccc(F)c(Nc2ncnc3ccc(-n4nc(C(=O)NCCc5ccccn5)c5ccccc54)nc23)c1F |  |  |  |  | 1 to 10 | 10 to 50 | −5.4 | < 500 | 
Cc1cn(-c2ccc3ncnc(Nc4c(F)ccc(NS(=O)(=O)c5cccc(Cl)c5C)c4F)c3n2)nc1C(=O)N1CCN(CCO)CC1 |  |  |  |  | 1 to 10 | > 50 | 3 | 1000 to 10000 | 
Cc1c(Cl)cccc1S(=O)(=O)Nc1ccc(F)c(Nc2ncnc3ccc(-n4nc(C(=O)N5CCN(C)CC5)cc4C)nc23)c1F |  |  |  |  | < 1 | > 50 | −8.7 | < 500 | 
CC(C)(O)[C@@H]1CCCN1c1cccc2c1ncn2-c1ccc2ncnc(Nc3c(F)ccc(NS(=O)(=O)c4cccc(Cl)c4Cl)c3F)c2n1 | 1 to 10 | 10 to 50 | −6 | < 500 |  |  |  |  | 
Cc1c(F)cccc1S(=O)(=O)Nc1ccc(F)c(Nc2ncnc3ccc(-n4nc(C(=O)N5CCC6(CNC6)C5)c5ccccc54)nc23)c1F |  |  |  |  | 1 to 10 | > 50 | −2.7 | 1000 to 10000 | 
Cc1c(Cl)cccc1S(=O)(=O)Nc1ccc(F)c(Nc2ncnc3ccc(-n4nc(C(=O)N5CCNC(=O)C5)c5ccccc54)nc23)c1F |  |  |  |  | < 1 | < 10 | −6 | 500 to 1000 | 
Cc1c(Cl)cccc1S(=O)(=O)Nc1ccc(F)c(Nc2ncnc3ccc(-n4cc(C(=O)N5CCN(C)CC5)nc4C)nc23)c1F |  |  |  |  | < 1 | 10 to 50 | 0.9 | 1000 to 10000 | 
Nc1cccc2c1ncn2-c1ccc2ncnc(Nc3cccc(NS(=O)(=O)c4cccc(Cl)c4Cl)c3F)c2n1 |  |  |  |  |  |  |  |  | IC50 (BRAF; read-out: Kinase IC50 (nM) BRAF, Table 5): 1 to 10 nM; IC50 (CRAF; read-out: Kinase IC50 (nM) CRAF, Table 5): 10 to 50 nM; HCT116 pERK Ymin % ([1]; lowest value of the curve, HCT116, Table 5): −2%; IC50 ([1]; HCT116 cells, Table 5): < 500 nM
Cc1c(F)cccc1S(=O)(=O)Nc1ccc(F)c(Nc2ncnc3ccc(-n4nc(C(=O)N5CCC6(CC5)CC(N)CO6)c5ccccc54)nc23)c1F (centres unmarked) |  |  |  |  |  |  |  |  | IC50 (BRAF; [2]): < 1 nM; IC50 (CRAF; [3]): 10 to 50 nM; HCT116 pERK Ymin % [1, 4]: −3.4%; IC50 [1, 5]: < 500 nM
C[C@@H]1COC[C@H](C)N1c1cccc2c1ncn2-c1ccc2ncnc(Nc3c(F)ccc(NS(=O)(=O)c4cccc(Cl)c4Cl)c3F)c2n1 (relative stereo) | 1 to 10 | > 50 | 0 | < 500 |  |  |  |  | 
Cc1c(F)cccc1S(=O)(=O)Nc1ccc(F)c(Nc2ncnc3ccc(-n4nc(C(=O)N[C@H]5C[C@H](O)C5)c5ccccc54)nc23)c1F |  |  |  |  | 1 to 10 | 10 to 50 | 6.6 | < 500 | 
